## Antibody variant affinities, Ab-14 light chain, assay B

Source: Li et al. 2023 (doi:10.1038/s41467-023-39022-2), MIT Lincoln Laboratory and A-Alpha Bio; data file from the FLAb repository.

Binding partner: SARS-CoV-2 spike HR2 peptide, sequence PDVDLGDISGINAS.

Parent: Ab-14, a human scFv built as VH, a (GGGGS)3 linker, VL. Only the CDRs of the light chain vary.
VH: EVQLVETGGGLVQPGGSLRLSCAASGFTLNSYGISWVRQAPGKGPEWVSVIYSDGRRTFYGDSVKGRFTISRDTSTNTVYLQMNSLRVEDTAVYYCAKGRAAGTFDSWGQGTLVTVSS
VL: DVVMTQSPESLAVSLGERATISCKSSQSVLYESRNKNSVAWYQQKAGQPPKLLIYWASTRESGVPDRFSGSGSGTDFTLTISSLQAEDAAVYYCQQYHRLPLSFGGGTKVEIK

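The starting antibody came from a phage panning campaign against this peptide. These sequences belong to a second round, designed from the earlier measurements on random variants of the parent. Group labels follow the data file (Ctrl: baseline library sampled from a position-specific scoring matrix, with some repeated check sequences; GP: Gaussian process model; GPLM: also part of the Gaussian process libraries; HC: hill climbing; Gen: genetic algorithm; a sequence that several methods proposed may carry one label only). The assay is AlphaSeq: two haploid yeast populations carry antibody and antigen on their surface. Pairs that bind mate more often; barcode pairs of the diploids are counted by sequencing. A regression on co-assayed BCL2-family reference pairs converts the normalised counts of each replicate to an apparent Kd. There are six technical replicates.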

Substitutions are numbered in sequence along the VL above, starting at 1 (not Kabat).
The read-out is the apparent dissociation constant on a log10 scale (nM): the lower, the stronger.
A mean of the replicates is given; it leaves out those without a signal.
A pair that was not seen in that replicate is written "n.d."; this usually means weak binding, but a binder can also be missed.
Values of this round are not directly comparable with the first-round values of the same sequences.
The authors' rule: three or more of the six replicates give a measured affinity, fewer mean a poor binder.
Where one sequence has several entries in the source, the replicates are listed entry by entry, parted by semicolons.
Three control strains display no target. For all light chain designs, 4% of the pairings with them gave a signal, with a median of 2.64 and one signal in twenty below 1.59, so weak values seen in few replicates may be background. For each scFv, signals with the empty controls are counted beside the result, with their mean in brackets.
Of ten entries with the parent sequence, four were seen in most replicates (averages 0.34 to 2.37), three in one and three in none, so single entries are noisy.

changes	group	replicates, log10 nM	mean log10 Kd (nM)	control signals
S25M+R34K	Ctrl	n.d. n.d. 1.94 n.d. n.d. n.d.	1.94	0/18
W56A+S62T	Ctrl	1.53 1.51 1.10 1.05 1.56 1.74	1.41	0/18
H98P	Ctrl	n.d. n.d. n.d. n.d. n.d. n.d.	n.d.	0/18
S33V+W56Y	Ctrl	n.d. n.d. n.d. n.d. n.d. n.d.	n.d.	0/18
S25K+L30G+W56S+A57E	Ctrl	n.d. n.d. n.d. n.d. n.d. n.d.	n.d.	2/18 (2.18)
S25F	Ctrl	n.d. 1.85 1.85 2.24 n.d. 2.44	2.10	0/18
S26G+K36E+W56H+S62L+L100K	Ctrl	2.59 1.87 1.92 1.70 1.57 1.79	1.90	2/18 (2.65)
S25M+S26Q+V29G+T59R	Ctrl	0.91 1.01 1.51 1.06 1.34 1.13	1.16	2/18 (1.88)
S25L+L30A+N35T+W56N+L100M+P101I	Ctrl	0.83 0.53 0.41 0.90 1.04 0.82	0.75	1/18 (2.56)
V29S+Y31T+T59L	Ctrl	n.d. n.d. n.d. n.d. n.d. n.d.	n.d.	0/18
L30E+Y31Q	Ctrl	2.02 1.27 1.79 1.34 1.99 1.64	1.67	0/18
S25M+Y31G+S33Q	Ctrl	0.50 0.72 0.54 0.30 0.58 0.72	0.56	1/18 (2.32)
S25Q+W56A	Ctrl+GP_HC	0.14 0.42 0.66 -0.04 0.68 0.76; 0.70 0.04 0.33 0.12 0.35 0.37	0.38	1/36 (2.42)
S25A+S33F+R34P+W56H	Ctrl	1.25 1.08 0.89 1.10 1.06 1.20	1.10	1/18 (3.24)
Q27D+Y31N+K36G+V39F	Ctrl	n.d. n.d. n.d. n.d. n.d. n.d.	n.d.	1/18 (2.72)
W56E	Ctrl+GPLM_HC	0.25 0.55 0.25 0.35 0.30 0.44; 0.23 0.00 0.30 -0.07 0.01 0.48	0.26	2/36 (2.78)
S25I+L30F+E32L+E61R+H98E	Ctrl	n.d. n.d. n.d. 1.69 n.d. 2.83	2.26	0/18
Y31M+S33W	Ctrl	n.d. 2.22 2.82 2.02 n.d. 3.55	2.65	0/18
S26M+Q27D+V29L+Y31M	Ctrl	n.d. n.d. n.d. n.d. n.d. n.d.	n.d.	0/18
S25T+S26M+S33A	Ctrl	2.08 2.24 2.08 n.d. 2.57 1.94	2.18	2/18 (2.67)
L30I+N35K+K36M+W56R+H98A	Ctrl	0.66 0.57 0.14 0.33 0.12 0.22	0.34	0/18
Q27D+L30Y	Ctrl	3.24 1.71 1.80 3.08 3.01 3.06	2.65	1/18 (1.96)
S25P+R34E+N35E+W56M+S62R+Q96S	Ctrl	n.d. n.d. n.d. 1.50 1.55 1.73	1.59	1/18 (1.55)
N35E+W56Q	Ctrl	0.62 0.62 1.25 0.61 0.54 1.42	0.84	0/18
S26D+V29D+S38G	Ctrl	n.d. n.d. 1.53 n.d. 1.47 n.d.	1.50	0/18
Q27N	Ctrl	2.21 1.97 1.96 1.52 2.26 2.73	2.11	0/18
W56E+Q96T+H98S	Ctrl	0.83 0.57 0.73 0.98 0.76 0.85	0.79	0/18
L30D+L102G	Ctrl	n.d. 0.97 1.88 n.d. 1.71 n.d.	1.52	0/18
K24E+V29Q+S38W+H98M	Ctrl	n.d. n.d. n.d. n.d. n.d. 1.54	1.54	0/18
S25M+L30K+W56D	Ctrl	0.19 0.06 -0.06 -0.02 0.19 0.28	0.11	1/18 (2.36)
S25L	Ctrl+GP_Gen	-0.12 0.27 -0.08 0.21 0.01 0.46; n.d. 2.64 0.61 1.31 2.05 n.d.	0.73	0/36
Y31K+R34D+W56S+R99M+L102P	Ctrl	n.d. n.d. 2.36 n.d. n.d. 2.76	2.56	0/18
S38D+V39I+R99I+L100D+S103C	Ctrl	n.d. n.d. n.d. n.d. n.d. n.d.	n.d.	0/18

The opening 2 entries, copied out:

changes	group	replicates, log10 nM	mean log10 Kd (nM)	control signals
S25M+R34K	Ctrl	n.d. n.d. 1.94 n.d. n.d. n.d.	1.94	0/18
W56A+S62T	Ctrl	1.53 1.51 1.10 1.05 1.56 1.74	1.41	0/18